The numbers were not newly measured in patent EP0135714B1, “Sustained release compositions for biologically active materials” (MELAMINE CHEMICALS, INC., priority 1983, dated 1985), which cites them from elsewhere.

The conditions of the data set: pH 7; cited from earlier work.

As for Diammonium Phosphate, the “Solubility (g/100g)” value is listed as 131 (at 15°) g/100g.
